Laboratory results as given in patent publication US20150111246A1, “SITE-SPECIFIC ENZYMATIC MODIFICATION OF EXENDINS AND ANALOGS THEREOF” (priority 2012, published 2015).

Assays:
[1] = target: T1, GLP-1 receptor (Rattus norvegicus, UniProt P32301); experiment: GLP-1 receptor binding displacement assay
T1 construct: endogenous in cells; host or cells: RINm5F cell membranes
T1 sequence (P32301 22-463): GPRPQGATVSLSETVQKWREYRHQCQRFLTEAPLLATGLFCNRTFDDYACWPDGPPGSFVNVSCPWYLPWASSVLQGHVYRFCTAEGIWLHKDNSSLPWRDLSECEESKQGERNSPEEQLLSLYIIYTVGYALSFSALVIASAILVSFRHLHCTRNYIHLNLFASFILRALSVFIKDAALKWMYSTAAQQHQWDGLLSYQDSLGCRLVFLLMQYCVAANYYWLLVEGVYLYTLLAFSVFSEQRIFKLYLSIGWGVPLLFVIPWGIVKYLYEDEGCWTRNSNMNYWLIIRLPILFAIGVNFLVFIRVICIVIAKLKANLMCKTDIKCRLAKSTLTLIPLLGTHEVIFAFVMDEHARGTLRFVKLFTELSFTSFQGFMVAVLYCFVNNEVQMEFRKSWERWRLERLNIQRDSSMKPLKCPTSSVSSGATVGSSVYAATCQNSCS
Description: GLP-1 receptor binding and functional assays: GLP-1 receptor binding activity and affinity may be measured in any number of known methods. […] Reaction mixtures are filtered through glass filter pads presoaked with 0.3% PEI solution and rinsed with ice-cold phosphate buffered saline. Bound counts are determined using a scintillation counter. Binding affinities can be calculated using GraphPad Prism® software (GraphPad Software, Inc., San Diego, Calif.).

[2] = target: GLP-1 receptor (UniProt P32301); experiment: cell-based or functional assay

Compound: CC[C@H](C)[C@H](NC(=O)[C@H](Cc1ccccc1)NC(=O)[C@H](CC(C)C)NC(=O)[C@H](CCCNC(=N)N)NC(=O)[C@@H](NC(=O)[C@H](C)NC(=O)[C@H](CCC(=O)O)NC(=O)[C@H](CCC(=O)O)NC(=O)[C@H](CCC(=O)O)NC(=O)[C@H](CCSC)NC(=O)[C@H](CCC(=O)NCCCCCNC(=O)CCCC[C@@H]1SC[C@@H]2NC(=O)N[C@@H]21)NC(=O)[C@H](CCCCN)NC(=O)[C@H](CO)NC(=O)[C@H](CC(C)C)NC(=O)[C@H](CC(=O)O)NC(=O)[C@H](CO)NC(=O)[C@@H](NC(=O)[C@H](Cc1ccccc1)NC(=O)[C@@H](NC(=O)CNC(=O)[C@H](CCC(=O)O)NC(=O)CNC(=O)[C@@H](N)Cc1c[nH]cn1)[C@@H](C)O)[C@@H](C)O)C(C)C)C(=O)N[C@@H](CCC(=O)O)C(=O)N[C@@H](Cc1c[nH]c2ccccc12)C(=O)N[C@@H](CC(C)C)C(=O)N[C@@H](CCCCN)C(=O)N[C@@H](CC(N)=O)C(=O)NCC(=O)NCC(=O)N1CCC[C@H]1C(=O)N[C@@H](CO)C(=O)N[C@@H](CO)C(=O)NCC(=O)N[C@@H](C)C(=O)N1CCC[C@H]1C(=O)N1CCC[C@H]1C(=O)N1CCC[C@H]1C(=O)N[C@@H](CO)C(N)=O
- IC50 [1]: 0.338 nM

Compound: Exendin-4 with dansyl cadaverine covalently attached at ^13Q (peptide)
- EC50 in the GLP-1 functional assay [2]: 3 pM
